# Reported properties for industrial, environmental and drug-like chemicals

From the experimental data distributed with OPERA 2.9.

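These are experimental values that the OPERA curators gathered from public databases to train and test their QSAR models. One number stands for a compound and property, with no spread given. How each value was measured is not recorded, so precision varies. Where a salt, mixture or single isomer is drawn, the source does not say that exactly this form was tested. Unmarked limits or estimates from the upstream databases cannot be ruled out.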

The melting point is given in degrees Celsius. Boiling points are in °C, nominally at 760 mmHg. The octanol-water partition coefficient is given as log10; larger values mean a more lipophilic compound. Water solubility is log10 of mol/L, nominally at 25 °C; higher is more soluble. Vapor pressure is log10 of mmHg; the set covers 15 to 30 °C, mostly 20 to 25 °C. Henry's law constant (air-water partitioning) is log10 of atm·m3/mol, nominally at 25 °C. The unbound fraction in human plasma runs from 0 (all bound) to 1 (all free). Cells with "–" have no entry in this list.

{"smiles": "Clc1cccc(-c2cc(Cl)c(Cl)c(Cl)c2Cl)c1Cl", "name": "2,2',3,3',4,5-Hexachlorobiphenyl", "mp (°C)": "101", "log VP (log10 mmHg)": "-4.804"}
{"smiles": "C=C(C)C(=O)OCCN(C)S(=O)(=O)C(F)(F)C(F)(F)C(F)(F)C(F)(F)F", "name": "2-(N-Methylperfluorobutanesulfonamido)ethyl methacrylate", "mp (°C)": "52", "log Kow": "4.89", "log solubility (log10 mol/L)": "-6.343", "log VP (log10 mmHg)": "-2.301"}
{"smiles": "CCCCCC1CCC(C2CCC(c3ccc(OCC)c(F)c3F)CC2)CC1", "stereo": "configuration not stated", "mp (°C)": "184.5", "boiling point (°C)": "403", "log solubility (log10 mol/L)": "-6.895", "log VP (log10 mmHg)": "-7.844"}
{"smiles": "CCc1cc(CC)c2sc3ccccc3c(=O)c2c1", "name": "9H-Thioxanthen-9-one, 2,4-diethyl-", "log Kow": "6.267", "log solubility (log10 mol/L)": "-5.519", "log VP (log10 mmHg)": "-6.778"}
{"smiles": "CC(=O)O[C@H]1CC[C@H]2[C@@H]3CCc4cc(O)ccc4[C@H]3CC[C@]12C", "name": "Estradiol 17beta-acetate", "mp (°C)": "218", "log Kow": "4"}
{"smiles": "COc1cc(Cl)c(OC)cc1N", "name": "2,5-Dimethoxy-4-chloroaniline", "log Kow": "1.93", "log solubility (log10 mol/L)": "-3.006", "log VP (log10 mmHg)": "-4.563"}
{"smiles": "CC(C)(C)c1cccc(C(C)(C)C)c1O", "name": "2,6-Di-tert-butylphenol", "log VP (log10 mmHg)": "-2.119", "plasma fu": "0.01953"}
{"smiles": "CCCCC(=O)OC(=O)CCCC", "name": "valeric anhydride", "log Kow": "3.33", "log VP (log10 mmHg)": "-1.426"}
{"smiles": "CCc1cccc(C)c1Nc1ccc(Nc2c(C)cccc2CC)c2c1C(=O)c1ccccc1C2=O", "mp (°C)": "171.4", "log solubility (log10 mol/L)": "-7.375"}
{"smiles": "CC(C)[C@@H]1CC[C@@H](C)C[C@H]1OC(=O)[C@@H]1CCC(=O)N1", "log Kow": "3.13", "log solubility (log10 mol/L)": "-2.633", "log VP (log10 mmHg)": "-5.375"}
{"smiles": "O=C(O)COC(=O)c1cc(Oc2ccc(C(F)(F)F)cc2Cl)ccc1[N+](=O)[O-]", "log solubility (log10 mol/L)": "-5.83", "log VP (log10 mmHg)": "-9.4"}
{"smiles": "CC(C)COC(C)(C)C", "name": "Isopropyl tert-butyl ether", "mp (°C)": "-101.6", "log VP (log10 mmHg)": "1.317"}
{"smiles": "CCCCCCCCCC(C)C=O", "stereo": "configuration not stated", "name": "2-Methylundecanal", "log solubility (log10 mol/L)": "-5.152", "log VP (log10 mmHg)": "-1.745"}
{"smiles": "CC(O)COC(=O)O[C@@H]1C[C@H](C)CC[C@H]1C(C)C", "stereo": "stereo partly drawn", "mp (°C)": "-21", "log Kow": "3.72", "log solubility (log10 mol/L)": "-3.464", "log VP (log10 mmHg)": "-4.133"}
{"smiles": "CC1(C)C(O)C(C)(C)C1O", "stereo": "configuration not stated", "name": "2,2,4,4-Tetramethylcyclobutane-1,3-diol", "log Kow": "1.6", "log VP (log10 mmHg)": "-3.33"}
{"smiles": "C/C(=C\\c1ccc(C)cc1)CCC=O", "name": "4-Pentenal, 4-methyl-5-(4-methylphenyl)-, (4E)-", "mp (°C)": "9", "boiling point (°C)": "266", "log Kow": "3.12", "log solubility (log10 mol/L)": "-3.567", "log VP (log10 mmHg)": "-3.031"}
{"smiles": "CCOC(=O)c1nn(-c2ccc(OC)cc2)c2c1CCN(c1ccc([N+](=O)[O-])cc1)C2=O", "mp (°C)": "190.8", "log Kow": "3.59", "log solubility (log10 mol/L)": "-6.619", "log VP (log10 mmHg)": "-9.71"}
{"smiles": "C=CCCCCCCCCCCCCCCCC", "name": "1-Octadecene", "log solubility (log10 mol/L)": "-9.823", "Henry's law constant (log10 atm·m3/mol)": "-0.608"}
{"smiles": "CC(C)C(=O)/C(=C/c1ccccc1)C(=O)Nc1ccccc1", "name": "(2Z)-2-Benzylidene-4-methyl-3-oxo-N-phenylpentanamide", "mp (°C)": "139.8", "log solubility (log10 mol/L)": "-4.45"}
{"smiles": "COC(C)COC(C)CO", "stereo": "configuration not stated", "name": "2-(2-Methoxypropoxy)propanol", "mp (°C)": "-81.39", "boiling point (°C)": "196.4", "log VP (log10 mmHg)": "-0.301"}
{"smiles": "CCCCCCCCCc1cc(C(C)(C)C)c(O)c(C(C)(C)C)c1", "name": "Phenol, 2,6-bis(1,1-dimethylethyl)-4-nonyl-", "mp (°C)": "-47.4", "log solubility (log10 mol/L)": "-5.946", "log VP (log10 mmHg)": "-4.085"}
{"smiles": "CCCCC(CC)C(=O)OCCOCCOCCOC(=O)C(CC)CCCC", "stereo": "configuration not stated", "name": "Triethylene glycol bis(2-ethylhexanoate)", "boiling point (°C)": "358.9", "log Kow": "6.1", "log solubility (log10 mol/L)": "-5.366"}
{"smiles": "C=CC(=O)OCCOC(=O)NCCCCCCCCCCCCCCCCCC", "mp (°C)": "72.3", "log solubility (log10 mol/L)": "-9.217", "log VP (log10 mmHg)": "-5.292"}
{"smiles": "CCCCCCCCCCCCNc1nc(Cl)nc(Nc2ccc3c(O)c(/N=N/c4ccc(/N=N/c5ccc(S(=O)(=O)[O-])cc5)cc4)c(S(=O)(=O)[O-])cc3c2)n1.[Na+].[Na+]", "log Kow": "-1.6", "log solubility (log10 mol/L)": "-3.359"}
{"smiles": "Cl.Nc1c(OCCO)nn2ccccc12", "mp (°C)": "220", "log Kow": "-3.1", "log VP (log10 mmHg)": "-7.782"}
{"smiles": "COS(=O)(=O)[O-].Cc1ccc(N(C)/N=C/C2=[N+](C)c3ccccc3C2(C)C)cc1", "log Kow": "-1.1", "log VP (log10 mmHg)": "-6.76"}

Extract of 2 entries:

| compound | name | mp (°C) | boiling point (°C) | log Kow | log solubility (log10 mol/L) | log VP (log10 mmHg) | Henry's law constant (log10 atm·m3/mol) | plasma fu |
|---|---|---|---|---|---|---|---|---|
| COS(=O)(=O)[O-].Cc1ccc(N(C)/N=C/C2=[N+](C)c3ccccc3C2(C)C)cc1 | – | – | – | -1.1 | – | -6.76 | – | – |
| C=C(C)C(=O)OCCN(C)S(=O)(=O)C(F)(F)C(F)(F)C(F)(F)C(F)(F)F | 2-(N-Methylperfluorobutanesulfonamido)ethyl methacrylate | 52 | – | 4.89 | -6.343 | -2.301 | – | – |